The results in this text go back to ChEMBL document CHEMBL1157141, “Prediction of intestinal absorption and metabolism of pharmacologically active flavones and flavanones” (Bioorg Med Chem, 2008).

SMILES strings stand for the structures.

The series in a line: Stability in hank's balanced salt solution at 15 uM after 20 mins. The series is classed as physicochemical. To be noted: read-out: Stability.

Regarding `O=C1C[C@@H](c2ccc(O)cc2)Oc2cc(O)cc(O)c21` [NARINGENIN], the remaining at 20 min, 15 µM was found to be 102%.
